Data taken from patent publication US10266506B2, “Compounds for use in imaging, diagnosing and/or treatment of diseases of the central nervous system or of tumors” (PIRAMAL IMAGING SA, priority 2007, dated 2019).

Assay: Plasma radioactivity and plasma metabolites after injection in a cynomolgus monkey
From the text: Plasma radioactivity profiles have been monitored over time. […] In addition, metabolites occurring in plasma over time have been monitored (FIGS. 8 and 9) for both ligands.

With `C#CCN(C)[C@H](C[18F])Cc1ccccc1` [[^18F]compound 13, N-[(2S)-1-(^18F)fluoro-3-phenylpropan-2-yl]-N-methylprop-2-yn-1-amine] the “plasma radioactivity of mother compound relative to [11C]Deprenyl” value (30 and 45 min time points) was “about double” and the “metabolite b relative to that observed for [11C]Deprenyl” value (30 min time point) was “only one third”.
